Target: Cannabinoid receptor 1 (Homo sapiens, UniProt P21554)
Experiment: biochemical
Format: cell-based, HEK293

Sequences of proteins named here, by UniProt entry; tags and fusion partners are left off.
UniProt P21554, whole entry: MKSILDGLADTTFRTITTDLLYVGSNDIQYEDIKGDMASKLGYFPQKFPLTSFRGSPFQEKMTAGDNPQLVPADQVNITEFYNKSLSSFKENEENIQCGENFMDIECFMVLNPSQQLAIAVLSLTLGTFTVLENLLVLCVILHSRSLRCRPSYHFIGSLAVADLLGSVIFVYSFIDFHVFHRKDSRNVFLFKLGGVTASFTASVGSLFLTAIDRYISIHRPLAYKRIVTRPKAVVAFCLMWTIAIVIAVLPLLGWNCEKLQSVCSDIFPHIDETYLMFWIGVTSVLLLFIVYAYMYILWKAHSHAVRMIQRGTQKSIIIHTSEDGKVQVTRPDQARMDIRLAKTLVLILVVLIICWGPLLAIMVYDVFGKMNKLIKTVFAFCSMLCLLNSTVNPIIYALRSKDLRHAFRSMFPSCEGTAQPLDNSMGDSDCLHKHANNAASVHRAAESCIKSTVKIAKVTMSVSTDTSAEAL

`CN1CCN(c2ncnc3c2nc(-c2ccccc2Cl)n3-c2ccc(Cl)cc2)CC1` showed a Ki of 2.8 nM.

— ChEMBL document CHEMBL1139370, “Discovery of 1-[9-(4-chlorophenyl)-8-(2-chlorophenyl)-9H-purin-6-yl]-4-ethylaminopiperidine-4-carboxylic acid amide hydrochloride (CP-945,598), a novel, potent, and selective cannabinoid type 1 receptor antagonist” (J Med Chem, 2009)
